Ab-14 light chain CDR variants: yeast mating affinities

Antigen: PDVDLGDISGINAS, a 14-residue peptide of the SARS-CoV-2 spike HR2 region.

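The parent was found by panning a naive human phage display library on the peptide. Designed CDR sequences, proposed from the first random library and measured here. Several design methods are mixed in this list. In AlphaSeq, yeast of one mating type display the scFv and yeast of the other type display the target. Pairs that bind mate more often; barcode pairs of the diploids are counted by sequencing. A regression on co-assayed BCL2-family reference pairs converts the normalised counts of each replicate to an apparent Kd. Mating was done six times.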

The variants keep the heavy chain, the linker and the frameworks of Ab-14 (scFv order VH, a (GGGGS)3 linker, VL).
VH: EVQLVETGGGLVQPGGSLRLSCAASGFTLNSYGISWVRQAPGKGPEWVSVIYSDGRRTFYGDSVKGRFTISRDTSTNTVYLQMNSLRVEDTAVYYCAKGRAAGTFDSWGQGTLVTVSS
VL: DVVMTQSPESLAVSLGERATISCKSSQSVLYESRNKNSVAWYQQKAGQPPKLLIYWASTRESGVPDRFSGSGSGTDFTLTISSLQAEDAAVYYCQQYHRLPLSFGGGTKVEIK

Variants are written as CDR1, CDR2 and CDR3 of the light chain (limits as in the source). Parent: KSSQSVLYESRNKNSVA, WASTRES, QQYHRLPLS. Variants here have more than six changes. The Kd shown is the geometric mean over detected replicates; a lower Kd is a better binder. A pair that was not seen in any replicate is written "nd"; this usually means weak binding, but a binder can also be missed.

CDR-L1	CDR-L2	CDR-L3	Kd	detected
KLYMTVGFEQRNKSRVA	DNNTRES	QQYDRLPLS	320 nM	1 of 6
KMSPSELYESRNCNSVA	QASTRES	QQCHRLELS	4.4 nM	1 of 6
RFSQTEQMGIRDYNAVA	NGSTVNT	QHYSRLPIS	41 nM	6 of 6
MVTQMAMTGMMSKRSVA	NAEMREN	QQYHRLPLI	63 nM	6 of 6
MISQIYNMGTFAINSVA	QASLRND	QQYDRLPLM	120 nM	5 of 6
MLPESLPQQQDNVNAVA	GAQHTAV	QQYGRLPLT	2.1 nM	6 of 6
DVTVVDNGASKIQNSIA	SGVEKCD	QQYSRLPLA	1.1 nM	6 of 6
KLSQHVEYESRLKNSVA	NASTRLE	QQYHRLPLS	3.3 nM	6 of 6
GLSNQETEQIAHANSIA	DRDERDV	QQYAHLPLI	4.3 nM	6 of 6
HISQSVGMTSFKKNSVA	ENSTRED	QQYDRLPLS	110 nM	5 of 6
KIGQTLNTLMHTKNNVA	DLVTRED	QQYHRLPLS	1.6 nM	6 of 6
KLGATMNTEMTKRNNVA	DLVTREN	QQYFRLPLS	2.3 nM	6 of 6
HITYGMYVSGRYKSNIA	QAETRMK	QQYDRLPLI	27 nM	6 of 6
RIQDHMAVGEMSHSSIA	EESTRMD	QQYSRLPLA	6.3 nM	6 of 6
KLSQSVEVLDRNKNSVA	NASTREA	QQYHRLPLS	4.3 nM	6 of 6
ILEENADDITEIGNSIA	ETNMVRS	QQYHRLPLA	4.0 nM	6 of 6
NMRGGEGEIAQHGYNIA	GVDLRAA	QQYARLPLH	15 nM	6 of 6
KQSMSVMMGSRNKNSVA	SAHKREH	QQYHRLPLS	1.4 µM	3 of 6
KVSQEVLMGDRNKNSVA	KASTRLS	QQYHRLPLS	3.0 nM	6 of 6
KVSQSVNVGTKNKNSLA	EMSTREF	QDYHRLPLS	7.0 nM	6 of 6
TLSHSTDLESVHKNSIA	DLMTRES	QQYDRLPLS	3.8 nM	6 of 6
KLYQNVGTMSHNKQAIA	DMERRED	QQYHRLPLS	760 pM	6 of 6
KLSMYYRYESQEKNSIA	EMSTREE	QSYHRLPLS	33 nM	6 of 6
KVQQSWLYESRMQNNVA	NASLRES	QQYHRLPLS	1.1 nM	6 of 6
KLYQSVGTMSHDKQSIA	DMERRED	QQYHRLPLS	nd	0 of 6
TIGQMFHGESRNRNSVA	QASTRES	QSYDRLPLS	13 nM	6 of 6
KIQWYPLENRGTIQAIA	EASTAYN	QQYMHLPLS	nd	0 of 6
HFSQMLEPGAQNFNAVA	NSDRVTE	QQYHKLPLA	2.0 nM	6 of 6
MMSYGWLYGSRNVRNVA	DHETRES	QQYDRLPLS	nd	0 of 6
MISQLFNMGQFAINSVA	QASTRNE	QQYDRLPLV	620 pM	2 of 6
MLTWGDDHETGHQNSIA	HAHERNT	QQYHQLPLT	5.8 nM	6 of 6
MISDLTMYGSRNVNSVA	DLSDRGS	QQYDRLPLS	10 nM	6 of 6
KISQLVNFLGKNKNSVA	QMSTRET	QQYDRLPLS	2.1 nM	6 of 6
SLVSKADYMDSERNNIA	NMDLRNT	QQYFHLPLT	5.3 nM	6 of 6
HISMMVGTKGYAKNSVA	NEETREK	QQYHRLPLS	7.5 nM	6 of 6
SLTTVTGQEKVRGNNVA	EMETREN	QQYDRLPLS	8.0 nM	6 of 6
KLPQSWLYDSRNSNSVA	HASQRME	QQYHRLPLS	860 pM	6 of 6
KITQLVMETSKNRNNVA	EVSTLPD	QQYHRLPLS	1.0 nM	6 of 6
KLSQSVEQEERNKNSVA	HASQREV	QQYHRLPLS	530 pM	6 of 6
MISQIYNMGTFAINSVA	QASIRNA	QQYDRLPLV	65 nM	4 of 6
KASPSEEYESRNKNSVA	NASLRLE	QQYHRLPLS	1.0 nM	6 of 6
MVGQGLMGESRAKNSIA	QASLRFD	QQYHRLPLI	29 nM	6 of 6
HLLQTVMYGQTRRNSVA	HAVTREN	QQYHRLPLS	26 nM	6 of 6
KLSQAWWYESRNKWSVA	NASLREQ	QQYHRLPLS	1.1 nM	6 of 6
KLQSLEQYESRNKNNVA	SASTRYS	QQYHRLPLS	1.5 nM	6 of 6
MMSQVTGYGTRMRNNVA	QTSVREA	QQYDRLPLI	3.4 nM	6 of 6
KLGQSTAMTSRMKNNVA	DLNTRER	QQYHRLPLS	2.2 nM	6 of 6
QIQGKLQEGGNQGANVA	QGVESKN	QQYFRLPLT	4.4 nM	6 of 6
IVSQLMLWGMHAKNSIA	EAHTRLN	QQYDRLPLI	150 nM	1 of 6
HLSQSVWQESRNKNSVA	NASQRER	QQYHRLPLS	1.5 nM	6 of 6
TLTQVTMVESYNKNSVA	QASTRLE	QSYHRLPLS	17 nM	6 of 6
KMQNSNGYESRNKNAVA	QASTRES	QQYHRLPLS	910 pM	6 of 6
NMNVSEDQWPSSKNAIA	QDTLRNL	QQYASLPLS	140 nM	6 of 6
KIGGVTNGISRSKNSVA	EQSTRED	QQYNRLPLS	1.4 nM	6 of 6
KLSQTHGMETKNRNSVA	ELVTRMS	QQYNRLPLS	3.9 nM	6 of 6
KISMLHNQTFEQSNNVA	EMVTRMN	QQYHRLPLS	2.0 nM	6 of 6
MFSQMTGLGMKAQNSVA	QASTRFE	QQYHRLPLI	2.2 nM	6 of 6
HLELEYMQMMKDHNSIA	DTEHKTD	QQYFRLPIS	2.5 nM	6 of 6
KMSQSVLIESRNKNSLA	HASTRVS	VWYFRLPLS	20 nM	6 of 6
MLSEFMHMLGAKKNSIA	DLVVRAN	QQYHRLPLE	20 nM	5 of 6
HLSANMWMQSSQWDAVA	QGDIANN	QQYSRLPLS	nd	0 of 6
HMSALTLQGMYHRNSVA	QMTTREN	QQYDHLPLS	40 nM	6 of 6
KVQEEALGGNQYTSNIA	GQSVAMP	QQYERLPLD	3.1 nM	6 of 6
MVTQMAMTGMMSKRSVA	NASTREE	QQYHRLPLI	17 nM	6 of 6
KMSMSWPYDSPNKNSVA	NASTRMQ	QQYHRLPLS	680 pM	6 of 6
MSSPSVGMEDRNKNSVA	WASQRES	NQYHRLPLS	nd	0 of 6
MMSQVTGLGQRHRNNVA	QTETREP	QQYDRLPLI	16 nM	6 of 6

Picked from the list: the 4 lowest averages where every replicate gave a value.

| CDR-L1 | CDR-L2 | CDR-L3 | Kd | detected |
|---|---|---|---|---|
| KLSQSVEQEERNKNSVA | HASQREV | QQYHRLPLS | 530 pM | 6 of 6 |
| KMSMSWPYDSPNKNSVA | NASTRMQ | QQYHRLPLS | 680 pM | 6 of 6 |
| KLYQNVGTMSHNKQAIA | DMERRED | QQYHRLPLS | 760 pM | 6 of 6 |
| KLPQSWLYDSRNSNSVA | HASQRME | QQYHRLPLS | 860 pM | 6 of 6 |

The range of this assay differs from that of the first round, and the authors advise against merging the two. Of ten entries with the parent sequence, four were seen in most replicates (averages 2.2 nM to 240 nM), three in one and three in none, so single entries are noisy. Three control strains display no target. For all light chain designs, 4% of the pairings with them gave a signal, with a median of 430 nM and one signal in twenty below 38 nM, so weak values seen in few replicates may be background. The authors' rule: three or more of the six replicates give a measured affinity, fewer mean a poor binder.

Reference: Li et al. 2023, doi:10.1038/s41467-023-39022-2. File: FLAb, binding data.